Some of the results follow.
Each compound was assayed on A. baumannii ATCC 17978 (assay: relative growth (fraction of control); higher = less inhibition). Settings: 50 µM.

Q: `COC(=O)[C@@H](NC(=O)Cn1cc(CCC(=O)NO)nn1)c1ccccc1` was tested. Which relative growth did it give?
A: 1.03

Q: For `C[N+](C)(C)CCCCNC(=O)[C@H]1C[C@H]2C(=O)N3CCC[C@H]3C(=O)N2[C@H]1c1cccc(OCCO)c1`, which relative growth is on record?
A: 1.11

Q: `Cc1ccc(N2NC(=O)/C(=N/O)C2=O)cc1C` was tested. Which relative growth did it give?
A: 1.11

Q: How did the relative growth turn out when `Cc1c(O[C@@H]2O[C@H](COC(=O)C[C@@](C)(O)CC(=O)O)C[C@H](O)[C@H]2O)occc1=O` was run?
A: 1.02

Q: `Cc1cc(=O)n2nc(S(C)(=O)=O)nc2[nH]1` was tested. Which relative growth did it give?
A: 0.985

Q: How did the relative growth turn out when `Cc1ccc(S(=O)(=O)N(C)C[C@H]2Oc3cc(Br)ccc3S(=O)(=O)N([C@@H](C)CO)C[C@H]2C)cc1` was run?
A: 0.896

Q: How did the relative growth turn out when `C[C@H](C(=O)O)N1C(=O)CCC1=O` was run?
A: 0.858

Q: Which relative growth does the source give for `C[C@H]1CN([C@@H](C)CO)S(=O)(=O)c2ccc(-c3cncnc3)cc2O[C@H]1CN(C)C(=O)Cc1ccccc1` here?
A: 0.905

Q: For `O=C(O)P(=O)(O)O`, which relative growth is on record?
A: 0.107

Q: With `CCS(=O)(=O)NCC[C@@H]1CC[C@@H](NS(=O)(=O)c2ccccc2C)[C@@H](CO)O1` as the compound, how does the relative growth read?
A: 0.926

Q: `CCN(CC)CCOC(=O)C1(C2CCCCC2)CCCCC1.Cl` was tested. Which relative growth did it give?
A: 0.951

Q: Which relative growth does the source give for `O=[N+]([O-])c1ccc(/C=C/CN(C/C=C/c2ccc([N+](=O)[O-])cc2)CCNS(=O)(=O)c2cccc3cnccc23)cc1` here?
A: 0.842

Q: Which relative growth does the source give for `COCCCOc1ccnc(CS(=O)c2nc3ccccc3[n-]2)c1C.[Na+]` (centres undefined) here?
A: 1.27

Q: With `O/N=C1\CCCCc2c1[nH]c1ccc(C3CCCCC3)cc21` as the compound, how does the relative growth read?
A: 0.917

Q: `O=C(NCCN1CCOCC1)[C@@]1(CCS(=O)(=O)c2ccccc2)COC(c2ccc(OCCCO)cc2)=N1` was tested. Which relative growth did it give?
A: 1.07

Q: How did the relative growth turn out when `C[C@H](CO)N1C[C@H](C)[C@@H](CN(C)S(=O)(=O)c2ccccc2F)Oc2ncc(C#Cc3cccnc3)cc2C1=O` was run?
A: 0.866

Q: With `CC(C)Cn1cnc2ccccc21` as the compound, how does the relative growth read?
A: 0.848

Q: How did the relative growth turn out when `CCN(CC)CCNC(=O)C(=O)NC1CC1` was run?
A: 1.01

Q: `O=C1c2ccccc2[C@](Cc2ccccc2I)(C(=O)NCC(F)(F)F)[C@H](c2ccc(CO)cc2)N1C1CCCCC1` was tested. Which relative growth did it give?
A: 1.12

Q: How did the relative growth turn out when `COc1ccc2cccc(CCNC(C)=O)c2c1` was run?
A: 1.03

Q: Which relative growth does the source give for `C[C@H](CO)N1C[C@H](C)[C@@H](CN(C)Cc2ccc(F)cc2)Oc2cc(C#CC3CC3)ccc2S1(=O)=O` here?
A: 1.22

Q: For `N#CC(=Cc1ccc(O)c(O)c1)C(N)=O`, which relative growth is on record?
A: 1.07

Q: How did the relative growth turn out when `COc1cc(C=O)ccc1O` was run?
A: 0.846

Q: `CC(C)NC(=O)N[C@H]1CC[C@@H](CCN)O[C@H]1CO` was tested. Which relative growth did it give?
A: 1.05

Q: How did the relative growth turn out when `CC1(C)CC(=O)C(=CNC(CO)(CO)CO)C(=O)C1` was run?
A: 0.899

Q: For `CC[C@H]1CN(C)N1C(=O)[C@@H]1CCCO1`, which relative growth is on record?
A: 1.13

Q: With `CN(C)CCC=C1c2ccccc2CCc2ccccc21.Cl` as the compound, how does the relative growth read?
A: 0.78

Q: How did the relative growth turn out when `CN(C)c1ccc(O)c2c1C[C@H]1C[C@H]3[C@H](N(C)C)C(O)=C(C(N)=O)C(=O)[C@@]3(O)C(O)=C1C2=O.Cl` was run?
A: 0.208

Q: With `COc1cccc(NC(=O)N2C[C@H](O)COC[C@@H]3O[C@@H](CC(=O)NCCCN4CCOCC4)CC[C@H]32)c1` as the compound, how does the relative growth read?
A: 1.12

Q: `C=CCC[C@H](Cc1ccc(F)cc1)C(=O)O[C@@H](CNC(=O)[C@H](CC=C)CC(=O)N(CCO)Cc1ccccc1)c1ccccc1` was tested. Which relative growth did it give?
A: 1.27

Q: `CC(C)NC(=O)N[C@H]1C=C[C@H](CC(=O)NCCN2CCCC2)O[C@H]1CO` was tested. Which relative growth did it give?
A: 0.949

Q: For `COc1ccccc1-c1cnc2c(c1)C(=O)N([C@H](C)CO)C[C@H](C)[C@@H](CN(C)C(=O)c1cccnc1)O2`, which relative growth is on record?
A: 1.06

Q: Which relative growth does the source give for `Cc1ccc(S(=O)(=O)N[C@@H](Cc2ccccc2)C(=O)NCCn2cc(-c3cccc(/C=C/C(=O)NO)c3)nn2)cc1` here?
A: 0.938

Q: How did the relative growth turn out when `Nc1ccccc1OCc1ccccc1` was run?
A: 0.877

Q: For `Cc1cn(C2CC(N=[N+]=[N-])C(CO)O2)c(=O)[nH]c1=O` (centres undefined), which relative growth is on record?
A: 1.1

Q: How did the relative growth turn out when `N[C@H](Cc1ccccc1)C(=O)O` was run?
A: 0.955

Q: With `O=c1c(-c2ccc(O)cc2)coc2cc(O)cc(O)c12` as the compound, how does the relative growth read?
A: 1.07

Q: Which relative growth does the source give for `N[C@@H](c1ccccc1)c1cc2ccccc2cn1` here?
A: 0.776

Q: How did the relative growth turn out when `NC(=O)Cn1c(=O)c2ccccc2n(CC(N)=O)c1=O` was run?
A: 1.06

Q: `O=C(C[C@@H]1C=C[C@@H](NC(=O)CN2CCOCC2)[C@@H](CO)O1)NCCc1ccncc1` was tested. Which relative growth did it give?
A: 1.05

Q: How did the relative growth turn out when `C[C@H](NC(=O)C[C@@H]1C=C[C@@H](NC(=O)CN2CCOCC2)[C@@H](CO)O1)c1ccccc1` was run?
A: 1.08

Q: For `Cn1cnc(S(=O)(=O)N[C@@H]2C=C[C@@H](CC(=O)NCC3CC3)O[C@H]2CO)c1`, which relative growth is on record?
A: 1.12

Q: `C=CCOC(=O)[C@@H]1[C@H]2C(=O)O[C@H](c3ccccc3)[C@H](c3ccccc3)N2[C@H](c2ccc(OCCOC(=O)[C@H]3C[C@H]4C(=O)N5CCC[C@H]5C(=O)N4[C@H]3c3ccc(O)cc3)cc2)[C@@]12C(=O)Nc1ccc(I)cc12` was tested. Which relative growth did it give?
A: 1.3

Q: For `O=C(CCc1cn(CC(=O)N2CCC3(CC2)C(=O)NCN3c2ccccc2)nn1)NO`, which relative growth is on record?
A: 0.865
